Data reported in patent publication US9688668B2, “Long chain base sphingosine kinase inhibitors” (UNIVERSITY OF VIRGINIA PATENT FOUNDATION, priority 2012, dated 2017).

Amino acid sequences for entries named in this document (tags omitted). A change or cut given only in a name is not applied to a line headed by its entry.
UniProt Q9JIA7: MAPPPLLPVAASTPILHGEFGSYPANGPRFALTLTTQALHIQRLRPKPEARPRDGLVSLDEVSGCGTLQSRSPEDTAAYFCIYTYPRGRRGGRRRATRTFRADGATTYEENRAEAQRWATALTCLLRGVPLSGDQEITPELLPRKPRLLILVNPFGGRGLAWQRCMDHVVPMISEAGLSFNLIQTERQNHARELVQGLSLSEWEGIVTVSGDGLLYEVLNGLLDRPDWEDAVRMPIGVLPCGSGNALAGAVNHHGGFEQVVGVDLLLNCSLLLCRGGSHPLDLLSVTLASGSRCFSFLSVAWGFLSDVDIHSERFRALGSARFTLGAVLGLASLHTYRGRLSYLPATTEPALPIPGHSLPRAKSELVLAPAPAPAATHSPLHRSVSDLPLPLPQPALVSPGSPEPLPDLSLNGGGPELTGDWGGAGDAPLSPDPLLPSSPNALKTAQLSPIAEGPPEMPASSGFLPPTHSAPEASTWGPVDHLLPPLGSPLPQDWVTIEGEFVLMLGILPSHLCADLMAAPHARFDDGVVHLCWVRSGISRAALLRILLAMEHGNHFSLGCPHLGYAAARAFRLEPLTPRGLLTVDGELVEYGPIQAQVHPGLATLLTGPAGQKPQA

Target: recombinant SphK2 (Mus musculus, UniProt Q9JIA7)
Assay: SphK2 scintillation proximity kinase assay
Format: biochemical
Conditions: recombinant SphK1 and SphK2; variable sphingosine, fixed ATP

pattern of inhibition: competitive inhibition
Structure (SMILES): CCCCCCCCCCCCc1ccc(C(=O)N2CCCC2C(=N)N)cc1 (stereo not shown) [Compound 1a, reference compound]
